Amino acid sequences for entries named in this document (tags omitted).
UniProt P32300, whole entry: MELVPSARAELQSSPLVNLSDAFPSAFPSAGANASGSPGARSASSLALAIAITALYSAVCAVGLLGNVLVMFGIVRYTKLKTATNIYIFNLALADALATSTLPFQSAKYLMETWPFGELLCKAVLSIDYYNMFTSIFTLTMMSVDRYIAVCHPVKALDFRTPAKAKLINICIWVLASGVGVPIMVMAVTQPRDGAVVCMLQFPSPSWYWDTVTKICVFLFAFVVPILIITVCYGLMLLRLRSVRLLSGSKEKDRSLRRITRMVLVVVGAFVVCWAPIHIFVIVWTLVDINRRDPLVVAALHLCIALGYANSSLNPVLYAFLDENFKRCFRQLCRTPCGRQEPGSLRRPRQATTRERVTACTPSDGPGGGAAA

According to patent publication US9107852B2, “Uses of agonists of delta opioid receptor in cosmetic and dermocosmetic field” (Induchem Holding AG, priority 2012, dated 2015):

Biological target: T1, delta2 opioid receptor (Mus musculus, UniProt P32300)
T1 construct: host or cells: unnamed cells 'bearing the delta2 opioid receptor'
Test: Agonist effect at the delta2 opioid receptor (DOP), cell impedance
Format: cell-based
Conditions: cells bearing delta2 opioid receptor
Protocol: Frozen spinach leaves were thawed and disrupted in fine particles a blender. This juice was further treated with ultrasounds to disrupt cells and proteins were recovered by acidic precipitation. These proteins were then digested by several enzymes, including pepsin and papain. The hydrolysate was purified (ultrafiltration), fractionated and stored before testing. Meanwhile, synthetic peptides were ordered from a manufacturer. The peptides and the hydrolysates were tested on cells bearing the delta2 opioid receptor and cell impedance was measured to evaluate the binding activity of the tested compounds (Law and Loh, 1993).
The results were expressed as a percent of control specific agonist response (DPDPE (SEQ ID No 27) was used for this purpose) ((measured specific response/control specific agonist response)×100) obtained in the presence of the test compounds.
The EC50 values (concentration producing a half-maximal specific response) and IC50 values (concentration causing a half-maximal inhibition of the control specific agonist response) were determined by non-linear regression analysis of the concentration-response curves generated with mean replicate values using Hill equation curve fitting (Y=D+[(A D)/(1+(C/C50)nH)], where Y=specific response, D=minimum specific response, A=maximum specific response, C=compound concentration, and C50=EC50 or IC50, and nH=slope factor).

D-Penicillamine(2,5)-enkephalin [DPDPE, reference compound]
EC50: 590 pM
